Experimental data: US9045468B2, “2,5-methano- and 2,5-ethano-tetrahydrobenzazepine derivatives and use thereof to block reuptake of norepinephrine, dopamine, and serotonin” (Albany Molecular Research, Inc., priority 2010, dated 2015)

Amino acid sequences for entries named in this document (tags omitted).
UniProt Q01959, whole entry: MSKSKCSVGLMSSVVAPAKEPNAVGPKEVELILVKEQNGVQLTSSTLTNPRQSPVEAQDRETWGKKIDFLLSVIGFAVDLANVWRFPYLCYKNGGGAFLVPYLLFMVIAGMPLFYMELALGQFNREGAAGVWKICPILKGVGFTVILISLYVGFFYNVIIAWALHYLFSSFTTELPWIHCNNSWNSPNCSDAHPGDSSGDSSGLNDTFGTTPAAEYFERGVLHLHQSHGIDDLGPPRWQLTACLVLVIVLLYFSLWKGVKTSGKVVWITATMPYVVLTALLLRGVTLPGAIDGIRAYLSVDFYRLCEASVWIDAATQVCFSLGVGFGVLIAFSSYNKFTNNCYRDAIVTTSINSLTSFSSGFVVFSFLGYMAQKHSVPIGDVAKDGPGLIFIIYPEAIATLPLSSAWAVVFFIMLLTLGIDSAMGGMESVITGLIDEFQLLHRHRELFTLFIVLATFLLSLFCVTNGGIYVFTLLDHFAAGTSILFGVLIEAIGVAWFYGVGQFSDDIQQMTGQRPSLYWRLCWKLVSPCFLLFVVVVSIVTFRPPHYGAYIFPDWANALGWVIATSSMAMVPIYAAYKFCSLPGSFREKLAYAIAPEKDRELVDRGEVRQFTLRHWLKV
UniProt P31645, whole entry: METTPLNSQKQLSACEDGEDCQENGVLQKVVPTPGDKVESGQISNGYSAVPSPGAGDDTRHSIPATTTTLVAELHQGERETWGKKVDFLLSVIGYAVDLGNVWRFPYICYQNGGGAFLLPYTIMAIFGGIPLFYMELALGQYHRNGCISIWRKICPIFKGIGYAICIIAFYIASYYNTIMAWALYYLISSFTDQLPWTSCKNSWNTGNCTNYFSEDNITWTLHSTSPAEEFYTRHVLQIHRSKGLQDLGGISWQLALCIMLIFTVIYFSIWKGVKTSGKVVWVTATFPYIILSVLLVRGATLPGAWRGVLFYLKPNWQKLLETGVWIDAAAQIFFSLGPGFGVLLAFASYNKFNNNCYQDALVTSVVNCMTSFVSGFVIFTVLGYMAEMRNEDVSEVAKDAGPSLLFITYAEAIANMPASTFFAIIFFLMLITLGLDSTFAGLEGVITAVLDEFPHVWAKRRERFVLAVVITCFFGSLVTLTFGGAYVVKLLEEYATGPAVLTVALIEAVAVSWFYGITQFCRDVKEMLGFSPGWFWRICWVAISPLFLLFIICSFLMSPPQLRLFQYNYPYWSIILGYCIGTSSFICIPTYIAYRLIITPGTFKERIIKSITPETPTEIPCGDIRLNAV
UniProt P23975, whole entry: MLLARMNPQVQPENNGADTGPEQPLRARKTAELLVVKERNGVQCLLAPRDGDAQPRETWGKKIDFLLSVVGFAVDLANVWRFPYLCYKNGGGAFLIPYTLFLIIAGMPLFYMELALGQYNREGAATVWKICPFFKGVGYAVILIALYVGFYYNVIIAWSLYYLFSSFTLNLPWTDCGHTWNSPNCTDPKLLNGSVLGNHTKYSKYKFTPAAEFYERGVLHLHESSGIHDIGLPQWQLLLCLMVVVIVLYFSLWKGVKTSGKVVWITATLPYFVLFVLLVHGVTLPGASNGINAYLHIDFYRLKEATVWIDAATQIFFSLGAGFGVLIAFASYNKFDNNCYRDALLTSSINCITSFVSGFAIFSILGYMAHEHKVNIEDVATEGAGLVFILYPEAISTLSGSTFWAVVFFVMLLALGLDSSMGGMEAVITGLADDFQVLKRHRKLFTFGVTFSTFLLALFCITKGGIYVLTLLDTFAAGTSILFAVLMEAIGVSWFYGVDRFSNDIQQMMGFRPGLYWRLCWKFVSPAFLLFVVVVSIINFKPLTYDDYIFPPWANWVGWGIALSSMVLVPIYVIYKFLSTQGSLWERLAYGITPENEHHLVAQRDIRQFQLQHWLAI

Columns and labels:
hDAT = hDAT (Homo sapiens (Human), UniProt Q01959); experiment: DAT radioligand binding assay ([125I]RTI-55, HEK-293 membranes); conditions: recombinant HEK-293 membranes, read-out: Binding Affinity (IC50, nM) DAT
Method: Recombinant HEK-293 cells expressing either the hSERT, hDAT, or hNET proteins were harvested from T-175 flasks as follows. The medium was removed from the flasks and the cells rinsed with HBSS without Ca and without Mg. The cells were then incubated for 5-10 minutes in 10 mM Tris-Cl, pH 7.5, 5 mM EDTA before the cells were lifted with a combination of pipetting and scraping, as needed. The cell suspension was collected into centrifuge bottles and homogenized for 30 seconds with a Polytron homogenizer. The suspension was centrifuged for 30 minutes at 32,000×g, 4° C. The supernatant was decanted and the pellet resuspended and homogenized in 50 mM Tris-Cl, pH 7.5, 1 mM EDTA for 10 seconds. […]
(§1) Compounds were dissolved in 100% DMSO at a concentration 100 times the desired highest assay concentration, serially diluted 1:3 in 100% DMSO, and 0.4 μl/well of each solution was dispensed to a Nunc polypropylene, round bottom, 384-well plate. […] The plates were air-dried overnight, 12 μl/well of MicroScint scintillation fluid added, and the plates counted in a Trilux.
The raw data was normalized to percent inhibition using control wells defining 0% (DMSO only) and 100% (selective inhibitor) inhibition which were run on each plate. […] The radioligand concentration chosen for each assay corresponds to the Kd concentration determined through saturation binding analysis for each assay.

hSERT = hSERT (Homo sapiens (Human), UniProt P31645); experiment: SERT radioligand binding assay ([125I]RTI-55, HEK-293 membranes); conditions: recombinant HEK-293 membranes, read-out: Binding Affinity (IC50, nM) SERT
Method: (§2) The medium was removed from the flasks and the cells rinsed with HBSS without Ca and without Mg. The cells were then incubated for 5-10 minutes in 10 mM Tris-Cl, pH 7.5, 5 mM EDTA before the cells were lifted with a combination of pipetting and scraping, as needed. The cell suspension was collected into centrifuge bottles and homogenized for 30 seconds with a Polytron homogenizer. The suspension was centrifuged for 30 minutes at 32,000×g, 4° C. The supernatant was decanted and the pellet resuspended and homogenized in 50 mM Tris-Cl, pH 7.5, 1 mM EDTA for 10 seconds. The suspension was then centrifuged again for 30 minutes at 32,000×g, 4° C. The supernatant was decanted and the pellet resuspended in 50 mM Tris-Cl, pH 7.5, 1 mM EDTA and briefly homogenized. A Bradford assay (Bio-rad) was performed and the membrane preparation diluted to 2 mg/ml with 50 mM Tris-Cl, pH 7.5, 1 mM EDTA. Aliquots were prepared, and then frozen and stored at −80° C.
as §1, with “Trilux. […]” for “Trilux.”

hNET = hNET (Homo sapiens (Human), UniProt P23975); experiment: NET radioligand binding assay ([3H]nisoxetine, HEK-293 membranes); conditions: recombinant HEK-293 membranes, read-out: Binding Affinity (IC50, nM) NET
Method: as §2
as §1, with “1.0” for “0.4”, “Trilux. […]” for “Trilux.”

Structure (SMILES) | IC50 (hDAT) [nM] | IC50 (hSERT) [nM] | IC50 (hNET) [nM]
COc1ccc2c(c1)CN1CCC2(c2ccc(Cl)cc2)C1 (racemic) [Example 1, rac-5-(4-chlorophenyl)-8-methoxy-2,5-methano-2,3,4,5-tetrahydro-1H-benzo[c]azepine] | 93.7 | – | –
FC(F)(F)c1nnc2ccc(-c3ccc4c(c3)CN3CCC4(c4ccc(Cl)cc4)C3)cn12 (racemic) [Example 4, rac-5-(4-chlorophenyl)-2,5-methano-8-(3-(trifluoromethyl)-[1,2,4]triazolo[4,3-a]pyridin-6-yl)-2,3,4,5-tetrahydro-1H-benzo[c]azepine] | – | 11.3 | –
Oc1ccc2c(c1)CN1CCC2(c2ccc(Cl)cc2)C1 (racemic) [Example 2, rac-5-(4-chlorophenyl)-2,5-methano-2,3,4,5-tetrahydro-1H-benzo[c]azepin-8-ol] | 53.9 | – | 385
